Protein sequences, listed by entry. Tags and fused reporters are not part of them.
UniProt P29371, whole entry: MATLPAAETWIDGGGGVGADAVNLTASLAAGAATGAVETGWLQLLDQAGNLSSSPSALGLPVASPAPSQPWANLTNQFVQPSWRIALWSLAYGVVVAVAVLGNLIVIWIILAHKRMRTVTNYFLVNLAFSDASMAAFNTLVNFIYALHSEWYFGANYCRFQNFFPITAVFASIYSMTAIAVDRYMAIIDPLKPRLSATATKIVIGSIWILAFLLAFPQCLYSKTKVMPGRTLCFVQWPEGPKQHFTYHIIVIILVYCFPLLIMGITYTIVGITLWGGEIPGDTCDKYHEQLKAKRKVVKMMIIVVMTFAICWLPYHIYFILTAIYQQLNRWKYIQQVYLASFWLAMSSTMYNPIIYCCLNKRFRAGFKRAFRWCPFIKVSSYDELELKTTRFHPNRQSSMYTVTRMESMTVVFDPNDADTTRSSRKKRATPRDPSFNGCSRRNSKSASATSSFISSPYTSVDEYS

In patent publication US8507535B2 (Hoffmann-La Roche Inc., priority 2010, dated 2013):

Biological target: human NK3 receptor (Homo sapiens (Human), UniProt P29371)
Assay: [3H]SR142801 competition binding assay
Details: membranes from HEK293 cells transiently expressing recombinant human NK3 receptor; [3H]SR142801 radioligand; read-out: Ki (uM) hNK3
Protocol: [^3H]SR142801 Competition Binding Assay
hNK3 receptor binding experiment were performed using [^3H]SR142801 (Catalog No. TRK1035, specific activity: 74.0 Ci/mmol, Amersham, GE Healthcare UK limited, Buckinghamshire, UK) and membrane isolated from HEK293 cells transiently expressing recombinant human NK3 receptor. After thawing, the membrane homogenates were centrifuged at 48,000×g for 10 min at 4° C., the pellets were resuspended in the 50 mM Tris-HCl, 4 mM MnCl2, 1 μM phosphoramidon, 0.1% BSA binding buffer at pH 7.4 to a final assay concentration of 5 μg protein/well. […] Nonspecific binding was measured in the presence of 10 μM SB222200 for both radioligands. The radioactivity on the filter was counted (5 min) on a Packard Top-count microplate scintillation counter with quenching correction after addition of 45 μl of microscint 40 (Can berra Packard S. A., Zurich, Switzerland) and shaking for 1 h. […] IC50 values were derived from the inhibition curve and the affinity constant (Ki) values were calculated using the Cheng-Prussoff equation Ki=IC50/(1+[L]/KD) where [L] is the concentration of radioligand and KD is its dissociation constant at the receptor, derived from the saturation isotherm. All experiments were performed in duplicate and the mean±standard error (SEM) of the individual Ki values was calculated.

Ki: 0.0242 µM
Compound: Cc1cc(C(=O)N2C[C@H](c3ccc(Cl)cc3)[C@@](C)(COc3ccc(Cl)cn3)C2)cnn1 (racemic) [Example 1, [(3RS,4RS)-4-(4-Chloro-phenyl)-3-(5-chloro-pyridin-2-yloxymethyl)-3-methyl-pyrrolidin-1-yl]-(6-methyl-pyridazin-4-yl)-methanone]
